Results published in patent US11325884B2, “Ketone inhibitors of lysine gingipain” (CORTEXYME, INC., priority 2016, dated 2022).

Target: lysine gingipain (Kgp) (Porphyromonas gingivalis (strain ATCC 33277 / DSM 20709 / CIP 103683 / JCM 12257 / NCTC 11834 / 2561), UniProt B2RLK2)
Assay: Inhibition of lysine gingipain, fluorogenic assay (Z-His-Glu-Lys-MCA)
Type: biochemical
Details: Table 4
Description: The specific assay conditions were as follows. Buffer: pH=7.5, 100 mM Tris-HCl, 75 mM NaCl, 2.5 mM CaCl2, 10 mM cysteine, 1% DMSO after all additions. Protein: 0.1 nM Kgp, isolated from culture of Porphyromonas gingivalis, as described by Pike et al. (J. Biol. Chem. 1994, 269(1), 406), and Potempa and Nguyen (Current Protocols in Protein Science. 2007, 21.20.1-21.20.27). Fluorogenic substrate: 10 μM Z-His-Glu-Lys-MCA. Time=90 minutes. Temperature=37° C.
Further assays to measure the inhibitory activity of compounds of the present invention against Kgp and cathepsins B, H, K, L, and S were conducted as described in Example 66. The capacities of the compounds to inhibit the activity of cathepsins F, V, and Z were also measured.

NCCCC[C@@H](NC(=O)C1CCCC1)C(=O)COc1c(F)ccc(F)c1F [Compound 21]
IC50: 0.09 nM
